According to US20230202975A1 (Recordati Industria Chimica e Farmaceutica S.p.A., priority 2021, published 2023):
Where “and” joins values, the source holds several entries; their conditions need not be identical. Equal values may be shown once. Read-outs that look alike come from different tables or passages of the source.

Columns and labels:
[1] = Accelerated stability (ICH), 40±2° C. and 75±5% R.H.; format: physicochemical
[2] = 25±2° C., 60±5% R.H., 0 months

## Cysteamine Bitartrate [Example 4]
[1]; 0 months
  Loss on drying: 0.04% and 0.15% and 0.23%
[1]; 6 months
  Loss on drying: 0.13% and 0.09% and 0.04%
[2]
  HPLC Related Substances %: Other impurities: <0.002% and <0.05% and <0.02%
  Loss on drying: 0.04% and 0.15% and 0.23%
